From patent US6015808A, “Synthesis of pharmaceutical compositions with lactams and β-lactams/oxo thia azabicyclo compounds” (priority 1995, dated 2000) come the findings set out here.

The test has as its system MAC strain 101 in mouse peritoneal macrophages or J774-A cell lines. The test can be described thus: activity against MAC inside macrophages (CFU counts). Particulars: intact living macrophage.

Each structure is given as a SMILES string.

As to `NCC[C@H](O)C(=O)N[C@@H]1C[C@H](N)[C@@H](O[C@H]2O[C@H](CN)[C@@H](O)[C@H](O)[C@H]2O)[C@H](O)[C@H]1O[C@H]1O[C@H](CO)[C@@H](O)[C@H](N)[C@H]1O` [amikacin], the “penetration of macrophages / killing of MAC in situ” value is recorded as “could not penetrate the intact living macrophage”.
